This assay addresses Cp149 reassembled capsids (Hepatitis B virus genotype D subtype ayw, UniProt P03146). It is filed as binding, Hepatitis B virus (HBV). As to conditions: ITC, 50 mM HEPES pH 7.5, 298 K.

By UniProt entry, the sequences of proteins in these tests, tags left out. Residues count along the entry.
UniProt P03146, 1-149: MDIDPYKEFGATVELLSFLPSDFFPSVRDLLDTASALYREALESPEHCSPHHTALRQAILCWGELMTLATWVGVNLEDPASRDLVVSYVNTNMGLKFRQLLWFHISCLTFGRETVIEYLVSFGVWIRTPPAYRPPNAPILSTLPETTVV

As to NP40 [Compound 6g], the dissociation constant (Kd) (as a rule, a measure of binding affinity in units of concentration) worked out at 68 ± 7 µM.
